From publication PMC3193285 (ACS Medicinal Chemistry Letters, 2011)

Biological target: T1, NOD1 (Homo sapiens, UniProt Q9Y239)
T1 sequence (Q9Y239 1-953): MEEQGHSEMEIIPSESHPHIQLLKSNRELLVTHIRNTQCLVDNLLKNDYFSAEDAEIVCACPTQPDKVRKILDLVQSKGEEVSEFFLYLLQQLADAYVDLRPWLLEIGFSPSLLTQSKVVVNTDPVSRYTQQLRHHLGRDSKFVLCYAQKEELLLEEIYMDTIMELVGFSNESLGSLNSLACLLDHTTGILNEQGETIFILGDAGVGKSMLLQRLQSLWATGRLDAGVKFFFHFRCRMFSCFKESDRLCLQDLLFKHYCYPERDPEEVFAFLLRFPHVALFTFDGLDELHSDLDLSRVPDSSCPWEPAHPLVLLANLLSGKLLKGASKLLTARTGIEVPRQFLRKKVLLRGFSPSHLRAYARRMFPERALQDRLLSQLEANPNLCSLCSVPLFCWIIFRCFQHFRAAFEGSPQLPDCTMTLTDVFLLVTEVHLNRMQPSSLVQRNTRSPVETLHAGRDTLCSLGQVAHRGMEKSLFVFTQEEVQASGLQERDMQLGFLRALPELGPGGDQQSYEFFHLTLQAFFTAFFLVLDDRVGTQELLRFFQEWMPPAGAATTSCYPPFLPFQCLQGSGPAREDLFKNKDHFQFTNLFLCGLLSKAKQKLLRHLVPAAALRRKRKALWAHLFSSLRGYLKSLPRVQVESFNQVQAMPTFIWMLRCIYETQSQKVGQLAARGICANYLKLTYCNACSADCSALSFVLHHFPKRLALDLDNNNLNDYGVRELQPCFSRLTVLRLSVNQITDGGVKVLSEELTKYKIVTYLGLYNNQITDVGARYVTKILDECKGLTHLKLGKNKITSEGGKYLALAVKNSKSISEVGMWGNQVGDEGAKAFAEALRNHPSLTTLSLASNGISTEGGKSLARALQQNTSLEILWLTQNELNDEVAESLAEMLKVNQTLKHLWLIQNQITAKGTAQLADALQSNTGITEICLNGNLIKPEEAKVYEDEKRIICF
Format: cell-based

Row | SMILES | selectivity for NOD1-dependent activation of NF-κB (over NOD2- and TNF-α-induced NF-κB activation) | decrease of NOD1 inhibitory activity / potency (relative to the parent analogue 1c series, Table 3)
1 | Cc1ccc(S(=O)(=O)n2c(N)nc3ccccc32)cc1 [1c] | > 36 fold | 
2 | Nc1nc2ccccc2n1Cc1ccc(Cl)cc1 [10c] |  | 15 fold
